As a reminder, the Kd is the constant that tells how readily two partners part at equilibrium. A higher Kd goes with weaker binding. In general, inhibition refers to the share of the control response that was lost under treatment.

Protein sequences, listed by entry. Tags and fused reporters are not part of them. Lines headed by an entry give the natural chain unless they say otherwise; changes in a name come on top.
UniProt P29597: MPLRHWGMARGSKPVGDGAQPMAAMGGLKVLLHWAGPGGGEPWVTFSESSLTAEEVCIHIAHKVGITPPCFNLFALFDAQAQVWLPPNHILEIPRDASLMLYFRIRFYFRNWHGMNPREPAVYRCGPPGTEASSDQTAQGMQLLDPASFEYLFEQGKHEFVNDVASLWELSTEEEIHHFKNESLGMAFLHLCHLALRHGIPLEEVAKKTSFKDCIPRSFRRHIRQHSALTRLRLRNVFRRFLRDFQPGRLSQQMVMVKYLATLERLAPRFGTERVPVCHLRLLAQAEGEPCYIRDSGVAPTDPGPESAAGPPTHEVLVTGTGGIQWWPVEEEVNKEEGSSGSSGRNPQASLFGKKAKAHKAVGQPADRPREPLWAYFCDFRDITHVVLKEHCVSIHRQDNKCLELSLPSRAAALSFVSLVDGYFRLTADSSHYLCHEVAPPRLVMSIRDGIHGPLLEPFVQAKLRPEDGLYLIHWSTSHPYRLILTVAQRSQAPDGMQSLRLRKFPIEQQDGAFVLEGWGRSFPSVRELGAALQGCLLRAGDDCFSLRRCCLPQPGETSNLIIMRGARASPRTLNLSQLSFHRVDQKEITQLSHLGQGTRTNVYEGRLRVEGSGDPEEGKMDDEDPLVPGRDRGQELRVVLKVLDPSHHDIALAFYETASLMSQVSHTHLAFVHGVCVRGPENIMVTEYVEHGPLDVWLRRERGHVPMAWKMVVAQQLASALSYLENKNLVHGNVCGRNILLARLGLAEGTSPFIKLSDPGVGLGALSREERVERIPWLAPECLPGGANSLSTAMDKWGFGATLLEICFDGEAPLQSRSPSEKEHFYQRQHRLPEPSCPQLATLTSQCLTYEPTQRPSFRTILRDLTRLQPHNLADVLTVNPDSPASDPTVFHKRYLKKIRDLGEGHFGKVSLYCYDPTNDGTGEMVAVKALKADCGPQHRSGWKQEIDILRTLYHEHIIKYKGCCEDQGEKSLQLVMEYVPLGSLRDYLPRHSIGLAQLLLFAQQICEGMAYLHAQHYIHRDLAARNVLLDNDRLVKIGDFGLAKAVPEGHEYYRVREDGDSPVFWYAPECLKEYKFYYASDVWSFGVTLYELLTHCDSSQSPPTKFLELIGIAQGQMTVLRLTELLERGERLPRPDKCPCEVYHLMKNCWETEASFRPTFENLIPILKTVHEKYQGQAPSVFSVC
UniProt O60674: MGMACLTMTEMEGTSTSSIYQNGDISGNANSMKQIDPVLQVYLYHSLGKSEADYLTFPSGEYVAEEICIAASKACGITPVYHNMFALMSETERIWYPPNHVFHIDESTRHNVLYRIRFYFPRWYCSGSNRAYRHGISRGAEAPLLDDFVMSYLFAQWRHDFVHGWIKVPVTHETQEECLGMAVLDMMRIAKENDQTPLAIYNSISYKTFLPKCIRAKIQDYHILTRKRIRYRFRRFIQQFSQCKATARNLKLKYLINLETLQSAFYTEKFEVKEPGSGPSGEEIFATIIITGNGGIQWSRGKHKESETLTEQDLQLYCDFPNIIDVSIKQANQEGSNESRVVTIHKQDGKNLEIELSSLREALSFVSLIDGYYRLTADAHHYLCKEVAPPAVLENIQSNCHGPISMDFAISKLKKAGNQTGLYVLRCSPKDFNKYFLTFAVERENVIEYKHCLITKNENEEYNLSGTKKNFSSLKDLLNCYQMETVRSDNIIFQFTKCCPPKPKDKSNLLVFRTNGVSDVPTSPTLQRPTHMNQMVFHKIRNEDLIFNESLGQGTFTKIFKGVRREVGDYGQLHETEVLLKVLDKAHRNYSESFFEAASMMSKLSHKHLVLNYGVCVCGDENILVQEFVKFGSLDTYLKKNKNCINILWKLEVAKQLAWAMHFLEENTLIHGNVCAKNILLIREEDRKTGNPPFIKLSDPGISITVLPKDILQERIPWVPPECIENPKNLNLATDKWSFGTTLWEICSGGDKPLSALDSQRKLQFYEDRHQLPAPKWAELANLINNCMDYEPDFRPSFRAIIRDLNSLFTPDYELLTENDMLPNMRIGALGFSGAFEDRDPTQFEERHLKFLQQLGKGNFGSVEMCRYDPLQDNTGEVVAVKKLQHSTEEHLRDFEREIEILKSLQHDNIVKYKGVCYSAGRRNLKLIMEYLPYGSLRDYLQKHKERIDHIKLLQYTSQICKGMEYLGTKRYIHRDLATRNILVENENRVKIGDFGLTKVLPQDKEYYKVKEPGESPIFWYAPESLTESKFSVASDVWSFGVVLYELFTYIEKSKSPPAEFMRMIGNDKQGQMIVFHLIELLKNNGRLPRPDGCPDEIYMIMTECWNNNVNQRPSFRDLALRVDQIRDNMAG

Each structure is given as a SMILES string. Where only a bound is given, the exact number is not on record here.

The target in assay [1] is T1, Non-receptor tyrosine-protein kinase TYK2 (Homo sapiens, UniProt P29597). Description: Binding affinity to human wild-type partial length TYK2 JH2 (G556 to D888 residues) expressed in mammalian expression system by KINOMEscan assay.
The target in assay [2] is Tyrosine-protein kinase JAK2 (Homo sapiens, UniProt O60674). Description: Inhibition of JAK2 JH1 (unknown origin) at 10 uM relative to control.
Assay [3] deals with T1, Non-receptor tyrosine-protein kinase TYK2. Nature of the assay: Inhibition of TYK2 JH1 (unknown origin) at 10 uM relative to control.

`CNc1cc(Nc2cccn(C3CC(F)(F)C3)c2=O)nc2c(C(=O)N[C@@H]3CCC[C@@H](O)C3)cnn12` showed a Kd in assay [1] below 200 pM. The inhibition in assay [2] and in assay [3] was below 50% in each case.

The record behind these values is ChEMBL document CHEMBL5380830, “Development and Therapeutic Implications of Tyrosine Kinase 2 Inhibitors” (J Med Chem, 2023).
